{
  "source": "patent US20090252703A1",
  "about": "“Use of alcohol co-solvents to improve pegylation reaction yields” (priority 2006, published 2009)",
  "assay": "solubility of CGRP peptides in aqueous conjugation buffer",
  "assay_type": "physicochemical",
  "details": "aqueous conjugation buffers used for coupling vehicle to the peptide",
  "source_text": "Co-solvent mediated conjugation of vehicle to CGRP peptide antagonists.",
  "data": [
    {"molecule": "CC(=O)N[C@@H](Cc1c[nH]c2ccccc12)C(=O)N[C@H](C(=O)N[C@H](C(=O)N[C@@H](Cc1cnc[nH]1)C(=O)N[C@@H](CCCNC(N)=O)C(=O)N[C@@H](CC(C)C)C(=O)N[C@@H](C)C(=O)NCC(=O)N[C@@H](CC(C)C)C(=O)N[C@@H](CC(C)C)C(=O)N[C@@H](CO)C(=O)N[C@@H](CCCNC(N)=O)C(=O)N[C@@H](CO)C(=O)NCC(=O)NCC(=O)N[C@H](C(=O)N[C@H](C(=O)N[C@@H](CCCN=C(N)N)C(=O)N[C@@H](CCCCN)C(=O)N[C@@H](CC(N)=O)C(=O)N[C@@H](Cc1ccccc1)C(=O)N[C@H](C(=O)N1CCC[C@H]1C(=O)N[C@H](C(=O)N[C@@H](CC(=O)O)C(=O)N[C@H](C(=O)NCC(=O)N1CCC[C@H]1C(=O)N[C@@H](Cc1ccccc1)C(=O)N[C@@H](C)C(=O)N[C@@H](Cc1ccccc1)C(N)=O)C(C)C)[C@@H](C)O)C(C)C)C(C)C)C(C)C)[C@@H](C)O)C(C)C", "note": "[SEQ ID NO:31, Ac-WVTH(Cit)LAGLLS(Cit)SGGVVRKNFVPTDVGPFAF-NH2]", "values": [
      {"measurement": "solubility in aqueous buffer medium (in words)", "result": "relatively insoluble"}
    ]}
  ]
}
